Consider one compound from publication PMC4937660, “In vitro evaluation of the effects of 4-aminopyridine on cytochrome P450 enzymes” (Journal of Drug Assessment, 2013).

The chains behind the UniProt entries cited, without tags or fusion partners. Where a name states a change or a piece, a line headed by the entry shows the natural chain unless it says otherwise. Residues count along the entry.
UniProt P20813: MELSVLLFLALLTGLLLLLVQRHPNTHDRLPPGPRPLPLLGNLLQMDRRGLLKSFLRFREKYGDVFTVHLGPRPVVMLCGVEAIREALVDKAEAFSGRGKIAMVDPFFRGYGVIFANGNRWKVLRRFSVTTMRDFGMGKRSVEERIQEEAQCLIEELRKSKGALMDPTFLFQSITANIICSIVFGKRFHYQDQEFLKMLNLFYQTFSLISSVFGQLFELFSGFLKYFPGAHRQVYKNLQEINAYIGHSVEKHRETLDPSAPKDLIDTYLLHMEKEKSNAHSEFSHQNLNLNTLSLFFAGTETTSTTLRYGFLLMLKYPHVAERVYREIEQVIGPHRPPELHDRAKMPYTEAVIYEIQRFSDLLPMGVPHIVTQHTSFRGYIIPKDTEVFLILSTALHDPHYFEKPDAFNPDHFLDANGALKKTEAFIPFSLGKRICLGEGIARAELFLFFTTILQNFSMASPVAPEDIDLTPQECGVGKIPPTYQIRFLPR
UniProt P10635, whole entry: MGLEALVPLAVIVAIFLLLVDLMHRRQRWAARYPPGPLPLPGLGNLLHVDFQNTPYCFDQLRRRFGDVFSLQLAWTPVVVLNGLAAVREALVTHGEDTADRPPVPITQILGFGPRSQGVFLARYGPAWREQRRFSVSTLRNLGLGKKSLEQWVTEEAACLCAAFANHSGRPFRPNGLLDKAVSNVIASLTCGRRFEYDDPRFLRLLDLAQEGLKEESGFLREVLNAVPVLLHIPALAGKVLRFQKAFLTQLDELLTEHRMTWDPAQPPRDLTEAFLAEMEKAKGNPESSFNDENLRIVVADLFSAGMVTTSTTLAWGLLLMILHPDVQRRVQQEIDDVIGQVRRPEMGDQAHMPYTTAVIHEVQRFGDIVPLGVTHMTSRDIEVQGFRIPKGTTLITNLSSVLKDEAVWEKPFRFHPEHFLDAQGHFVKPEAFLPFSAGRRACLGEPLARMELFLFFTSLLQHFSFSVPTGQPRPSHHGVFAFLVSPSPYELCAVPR
UniProt P05177, 2-516: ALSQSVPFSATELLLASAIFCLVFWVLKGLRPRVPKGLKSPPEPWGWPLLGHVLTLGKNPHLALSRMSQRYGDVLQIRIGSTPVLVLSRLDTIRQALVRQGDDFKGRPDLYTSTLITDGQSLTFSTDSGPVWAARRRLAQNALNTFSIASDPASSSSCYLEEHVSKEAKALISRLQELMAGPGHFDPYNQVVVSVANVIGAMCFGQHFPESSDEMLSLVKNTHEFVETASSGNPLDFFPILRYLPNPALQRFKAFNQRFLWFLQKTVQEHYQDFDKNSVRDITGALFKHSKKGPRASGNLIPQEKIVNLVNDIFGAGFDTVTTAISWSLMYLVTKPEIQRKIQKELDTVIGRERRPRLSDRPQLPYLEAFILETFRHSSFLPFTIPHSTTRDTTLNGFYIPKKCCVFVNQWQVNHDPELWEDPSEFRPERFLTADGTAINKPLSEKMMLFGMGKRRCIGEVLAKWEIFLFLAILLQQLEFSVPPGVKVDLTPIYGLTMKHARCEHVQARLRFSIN
UniProt P10632, whole entry: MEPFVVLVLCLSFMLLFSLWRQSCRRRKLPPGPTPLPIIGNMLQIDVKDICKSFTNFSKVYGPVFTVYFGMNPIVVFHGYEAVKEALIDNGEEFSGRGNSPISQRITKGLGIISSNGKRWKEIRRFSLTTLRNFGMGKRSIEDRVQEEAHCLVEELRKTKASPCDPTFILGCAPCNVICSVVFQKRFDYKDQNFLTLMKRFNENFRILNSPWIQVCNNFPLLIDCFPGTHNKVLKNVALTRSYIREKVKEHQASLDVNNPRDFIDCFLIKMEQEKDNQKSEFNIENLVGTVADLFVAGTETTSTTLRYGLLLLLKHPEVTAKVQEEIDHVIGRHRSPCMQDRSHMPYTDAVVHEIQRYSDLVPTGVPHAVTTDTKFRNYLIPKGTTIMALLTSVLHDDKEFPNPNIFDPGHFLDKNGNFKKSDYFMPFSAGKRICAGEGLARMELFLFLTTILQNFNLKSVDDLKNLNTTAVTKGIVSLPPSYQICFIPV
UniProt P11509: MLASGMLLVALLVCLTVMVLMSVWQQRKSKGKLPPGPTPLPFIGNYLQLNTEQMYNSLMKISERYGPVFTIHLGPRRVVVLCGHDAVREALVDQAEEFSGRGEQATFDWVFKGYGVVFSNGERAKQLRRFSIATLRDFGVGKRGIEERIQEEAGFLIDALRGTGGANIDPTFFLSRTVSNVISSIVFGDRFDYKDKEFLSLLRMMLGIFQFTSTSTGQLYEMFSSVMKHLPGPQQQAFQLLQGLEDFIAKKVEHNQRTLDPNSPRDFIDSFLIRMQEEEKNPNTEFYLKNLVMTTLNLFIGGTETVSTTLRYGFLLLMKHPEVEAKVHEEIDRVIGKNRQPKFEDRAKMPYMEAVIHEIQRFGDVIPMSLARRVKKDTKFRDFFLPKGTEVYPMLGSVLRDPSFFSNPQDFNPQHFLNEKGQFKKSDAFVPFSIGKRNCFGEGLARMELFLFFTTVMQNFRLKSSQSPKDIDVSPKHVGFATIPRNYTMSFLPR
UniProt P05181: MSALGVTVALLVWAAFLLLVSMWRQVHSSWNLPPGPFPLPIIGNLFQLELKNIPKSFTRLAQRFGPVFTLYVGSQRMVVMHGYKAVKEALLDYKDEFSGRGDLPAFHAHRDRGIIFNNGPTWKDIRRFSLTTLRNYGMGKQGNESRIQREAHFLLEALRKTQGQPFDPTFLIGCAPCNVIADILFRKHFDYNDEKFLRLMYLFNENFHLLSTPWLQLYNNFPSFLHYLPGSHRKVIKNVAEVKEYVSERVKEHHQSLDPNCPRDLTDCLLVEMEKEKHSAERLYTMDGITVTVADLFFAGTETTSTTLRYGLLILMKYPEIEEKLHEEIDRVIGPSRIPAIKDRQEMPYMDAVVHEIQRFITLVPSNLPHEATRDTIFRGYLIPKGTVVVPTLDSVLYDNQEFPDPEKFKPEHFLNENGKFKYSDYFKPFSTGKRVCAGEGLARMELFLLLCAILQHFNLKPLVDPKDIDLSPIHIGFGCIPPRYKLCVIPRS

SMILES strings stand for the structures. pIC50, pKi: −log10 of the molar value.

Assay [1] deals with CYP2B6 (Homo sapiens, UniProt P20813). The conditions noted are these: read-out: Direct inhibition, 0-min Pre-incubation / IC50, no pre-incubation, bupropion 50 μM (about Km), NADPH-generating system, pH 7.4, 37 °C.
The target in assay [2] is CYP2D6 (Homo sapiens, UniProt P10635). The settings on record: read-out: Direct inhibition, 0-min Pre-incubation / IC50, no pre-incubation, dextromethorphan 7.5 μM (about Km), NADPH-generating system, pH 7.4, 37 °C.
The target of assay [3] is CYP1A2 (Homo sapiens, UniProt P05177). The settings on record: read-out: Direct inhibition, 0-min Pre-incubation / IC50, no pre-incubation, phenacetin 40 μM (about Km), NADPH-generating system, pH 7.4, 37 °C.
Assay [4] deals with CYP2C8 (Homo sapiens, UniProt P10632). The settings on record: read-out: Direct inhibition, 0-min Pre-incubation / IC50, no pre-incubation, amodiaquine 7.0 μM (about Km), NADPH-generating system, pH 7.4, 37 °C.
Assay [5] deals with CYP2A6 (Homo sapiens, UniProt P11509). The settings on record: read-out: Direct inhibition, 0-min Pre-incubation / IC50, no pre-incubation, coumarin 0.75 μM (about Km), NADPH-generating system, pH 7.4, 37 °C.
Assay [6] addresses T1, CYP2E1 (Homo sapiens, UniProt P05181). The experiment in a line: chlorzoxazone 6-hydroxylation in human liver microsomes, HPLC-MS/MS. On the technique in general: Liver microsomes are a subcellular fraction often used to study metabolism.
Assay [7] concerns the target T1, CYP2E1. The assay is described as above. This is another data set of the same source.

For orientation: pKi means the negative decadic logarithm of the Ki, by convention in mol/L. For `Nc1ccncc1` [4-AP], the pIC50 was under 4.52 in assay [1]; under 4.52 in assay [2]; under 4.52 in assay [3]; under 4.52 in assay [4]; under 4.52 in assay [5]; about 3.90 in assay [6]. For the same compound, the pKi in assay [7] is about 4.20.
